# Results reported in US20090246519A1 (priority 2008, published 2009).
# Tested on: Strains in all clusters
# Assay: Resistance to other oxyanions under aerobic growth conditions
# Format: cell-based
# Details: 0.7 mM, aerobic growth conditions (data not shown)
substance,measurement,value
arsenite,Resistance of strains to oxyanion,resistant
